Counter-ions that a name gives are not always drawn. Active and inactive are the calls of the source. Unless noted, no cut-off for these calls is given here.

The chains behind the UniProt entries cited, without tags or fusion partners.
UniProt P98170, whole entry: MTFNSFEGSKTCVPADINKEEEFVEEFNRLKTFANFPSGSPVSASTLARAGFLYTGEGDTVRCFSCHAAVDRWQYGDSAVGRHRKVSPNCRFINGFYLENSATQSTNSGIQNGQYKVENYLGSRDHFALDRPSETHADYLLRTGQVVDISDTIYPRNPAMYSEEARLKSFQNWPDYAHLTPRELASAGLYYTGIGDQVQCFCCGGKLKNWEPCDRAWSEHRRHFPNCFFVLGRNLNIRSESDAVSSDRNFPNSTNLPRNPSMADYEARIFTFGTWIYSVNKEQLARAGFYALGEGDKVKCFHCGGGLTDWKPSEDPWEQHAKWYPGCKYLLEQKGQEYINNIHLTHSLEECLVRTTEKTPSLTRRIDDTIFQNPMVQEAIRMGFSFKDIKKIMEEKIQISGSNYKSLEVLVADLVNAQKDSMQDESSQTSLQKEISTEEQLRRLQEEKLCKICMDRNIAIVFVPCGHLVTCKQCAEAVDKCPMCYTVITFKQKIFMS
UniProt P35363, whole entry: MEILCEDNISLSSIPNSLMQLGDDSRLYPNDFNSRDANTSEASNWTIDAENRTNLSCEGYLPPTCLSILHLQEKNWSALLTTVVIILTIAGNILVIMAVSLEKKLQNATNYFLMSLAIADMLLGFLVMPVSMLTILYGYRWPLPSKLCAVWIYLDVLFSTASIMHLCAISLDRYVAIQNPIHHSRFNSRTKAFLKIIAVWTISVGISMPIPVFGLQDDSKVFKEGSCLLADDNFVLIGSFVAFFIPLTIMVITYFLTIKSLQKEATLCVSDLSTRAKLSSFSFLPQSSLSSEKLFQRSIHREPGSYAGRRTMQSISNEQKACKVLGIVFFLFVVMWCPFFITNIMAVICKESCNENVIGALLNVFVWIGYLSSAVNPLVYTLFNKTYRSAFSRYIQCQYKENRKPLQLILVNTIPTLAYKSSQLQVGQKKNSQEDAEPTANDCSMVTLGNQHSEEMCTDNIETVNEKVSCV
UniProt P35372, whole entry: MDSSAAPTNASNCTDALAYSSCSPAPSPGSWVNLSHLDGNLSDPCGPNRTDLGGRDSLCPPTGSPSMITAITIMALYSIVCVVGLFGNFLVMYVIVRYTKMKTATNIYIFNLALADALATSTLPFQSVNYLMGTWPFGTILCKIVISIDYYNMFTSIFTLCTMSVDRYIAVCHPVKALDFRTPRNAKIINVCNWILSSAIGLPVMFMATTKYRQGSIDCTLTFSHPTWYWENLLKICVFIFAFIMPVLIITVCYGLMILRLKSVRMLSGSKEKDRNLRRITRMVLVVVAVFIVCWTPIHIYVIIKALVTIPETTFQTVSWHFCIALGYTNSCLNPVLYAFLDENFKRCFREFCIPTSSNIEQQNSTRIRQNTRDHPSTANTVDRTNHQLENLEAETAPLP

The text below walks through data of ChEMBL document CHEMBL1201862, “PubChem BioAssay data set” (2004).

For experiment [1], the target named is T1, E3 ubiquitin-protein ligase XIAP (Homo sapiens, UniProt P98170). The experiment is described as follows: SAR analysis of Antagonists of IAP-family anti-apoptotic proteins. [Related pubchem assays (depositor defined):AID1018, AID1449, AID1513, AID1514, AID1638].
Experiment [2] deals with T1, E3 ubiquitin-protein ligase XIAP. Put plainly: SAR analysis of Antagonists of XIAP-Bir3 domain of IAP-family anti-apoptotic proteins. [Related pubchem assays (depositor defined):AID1018, AID1449, AID1513, AID1514, AID1638].
For experiment [3], the target named is T2, Mannose-6-phosphate isomerase (Homo sapiens, UniProt P34949).
T2 sequence (P34949 whole entry): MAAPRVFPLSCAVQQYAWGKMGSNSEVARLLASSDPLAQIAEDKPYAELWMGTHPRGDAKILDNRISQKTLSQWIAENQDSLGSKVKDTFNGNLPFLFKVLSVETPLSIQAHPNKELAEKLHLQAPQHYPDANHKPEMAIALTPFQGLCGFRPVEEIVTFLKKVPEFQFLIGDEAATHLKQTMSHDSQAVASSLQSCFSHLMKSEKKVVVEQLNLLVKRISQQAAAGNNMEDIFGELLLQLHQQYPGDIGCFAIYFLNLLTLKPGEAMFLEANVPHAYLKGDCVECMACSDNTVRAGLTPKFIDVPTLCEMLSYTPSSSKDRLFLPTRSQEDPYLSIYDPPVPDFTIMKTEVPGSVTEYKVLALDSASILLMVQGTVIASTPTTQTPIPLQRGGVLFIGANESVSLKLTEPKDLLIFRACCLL
The experiment is described as follows: PMI enzyme inhibitors, confirmation, biochemical, fluorescence intensity (AID 1535).

For experiment [4], the target named is 5-hydroxytryptamine receptor 2A (Mus musculus, UniProt P35363). The experiment is classed as functional, cell-based.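 Note: CHO-K1 cells with tagged receptor and beta-arrestin; agonist potency measured as compound-induced activation of the receptor.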
The target of a further experiment is Mu-type opioid receptor (Homo sapiens, UniProt P35372). The experiment is classed as functional, cell-based.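 Note: U2OS cells with beta-arrestin recruitment to OPRM1 by beta-gal complementation.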

For the molecule `CC(C)[C@H](NC(=O)[C@@H](C)N)C(=O)N1CCC[C@H]1C(=O)NC(c1ccccc1)c1ccccc1`, the values for the IC50 in experiment [1] and in experiment [2] were inactive: > 100 µM and active: 76.5 µM, respectively.
With `O=c1c2ccccc2sn1-c1ccc(Cl)cc1`, the IC50 in experiment [3] is active: 2.45 µM.
Regarding `O=C1CCc2ccc(OCCCCN3CCN(c4cccc(Cl)c4Cl)CC3)cc2N1` [ARIPIPRAZOLE], in experiment [4], the EC50 is active: 8.39 µM.
`CNC[C@H](O)c1ccc(O)c(O)c1` [EPINEPHRINE BITARTRATE]: on Mu-type opioid receptor, the EC50 is inactive: 92.5 µM.
As to `CNCC(O)c1ccc(O)c(O)c1` (stereo unspecified) [RACEPINEPHRINE HYDROCHLORIDE], at Mu-type opioid receptor, the EC50 is inactive: 92.6 µM.
